ChEMBL document CHEMBL5724801, “EUbOPEN Chemogenomics Library - Multiplex” (2024)

How the values were obtained:
[1] = test system: Fibroblast; assay: Multiplex assay against human fibroblast; assay type: toxicity, cell-based; details: 10 µM, compound concentration 10 uM
[2] = test system: HEK-293T; assay: Multiplex assay against HEK293T; assay type: toxicity, cell-based; details: human, 12 h, 1 µM, compound concentration 1 uM

CNC[C@H](O)c1ccc(O)c(O)c1 [EPINEPHRINE]
Total Cell Count ([1]; 0 h): 165 | Total Cell Count ([1]; 12 h): 179 | Total Cell Count [2]: 371
